In publication PMC11574045, “A cofactor-induced repressive type of transcription factor condensation can be induced by synthetic peptides to suppress tumorigenesis” (The EMBO Journal, 2024):

Test system: HEK293FT cells transfected with TF library
Assay: Screening of TF condensates based on fluorescent puncta
Format: cell-based
Details: Figure 1B numerical data; TF library screen, one value per transcriptional factor
Procedure: TF plasmids were automatically added to black-walled 384-well plates at 80 ng per well to reach a final concentration of 1.6 μg/ml. Polyethylenimine (PEI, Sigma) was then added to the plasmid-loaded plates at 240 ng per well (4.8 μg/ml). Subsequently, HEK293FT cells were seeded into the plate at 2000 cells per well. After 60 h, cells were cultured in medium with or without glucose for 12 h, and then fixed with 4% paraformaldehyde (PFA) at room temperature for 30 min. After three washes with PBS, fixed cells were permeabilized with 0.05% Triton X-100 for 15 min. Thereafter, cells were blocked with 5% BSA for 1 h, and then incubated overnight with anti-Flag (Sigma F3165, 1:200) and anti-GAL4 (Abbkine ABP57232, 1:200) primary antibodies at 4 °C. The cells were then gently washed with PBS, followed by being incubated with Alexa Fluor Plus 488 goat anti-mouse IgG secondary antibody (Thermo A32723, 1:400) or Alexa Fluor Plus 488 goat anti-rabbit IgG secondary antibody (Thermo A32731, 1:400) for 1 h. The plates were kept at 4 °C in the dark before being analyzed using an Opera System (Perkin Elmer). Fifty random fields per well were scanned and analyzed using the Columbus Plus Image Data Storage and Analysis System (Perkin Elmer).

B1: IFNB1 (protein, UniProt P01574 22-187, looked up)
Interferon beta: MSYNLLGFLQRSSNFQCQKLLWQLNGRLEYCLKDRMNFDIPEEIKQLQQFQKEDAALTIYEMLQNIFAIFRQDSSSTGWNETIVENLLANVYHQINHLKTVLEEKLEKEDFTRGKLMSSLHLKRYYGRILHYLKAKEYSHCAWTIVRVEILRNFYFINRLTGYLRN
Z score of condensed fraction: -0.3743
